Earlier results as cited in US20230181442A1, “METHOD FOR DYEING KERATIN MATERIAL, COMPRISING THE USE OF AN ORGANOSILICON COMPOUND, HYALURONIC ACID (SALT), A DYEING COMPOUND AND A POST-TREATMENT AGENT” (Henkel AG & Co. KGaA, priority 2020, published 2023).

Settings: 25° C.

Question: Which solubility in water does the source give for “3,4,5,6-tetrachloro-2-(1,4,5,8-tetrabromo-6-hydroxy-3-oxoxanthen-9-yl)benzoic acid [Acid Red 92]” here?
Answer: greater than 10 g/L
